Laboratory results from publication doi:10.1101/2022.10.27.513961v1 (bioRxiv, 2022).

Assays:
WM164 cells = assay: Real-time cell analysis, xCELLigence impedance; type: cell-based
HT144 cells = assay: Real-time cell analysis, xCELLigence impedance; type: cell-based

CC(C)C[C@@H]1NC(=O)[C@H](CCCNC(=N)N)NC(=O)[C@H](CCCNC(=N)N)NC(=O)[C@@H]2CSSC[C@H](NC(=O)[C@H](Cc3ccc(O)cc3)NC(=O)[C@H]([C@@H](C)O)NC(=O)[C@H](C(C)C)NC(=O)[C@@H]3CSSC[C@H](NC1=O)C(=O)N[C@@H](Cc1ccc(O)cc1)C(=O)N[C@@H](CCCCN)C(=O)N[C@@H](CCC(N)=O)C(=O)N[C@@H](CCCNC(=N)N)C(=O)N3)C(=O)N[C@@H](CCCNC(=N)N)C(=O)NCC(=O)N[C@@H](CCCNC(=N)N)C(=O)NCC(=O)N2 [cGm, cyclic gomesin]
reduction in impedance signal (WM164 cells; 4 µM, 24 h): ~50%
time to drop in the impedance to ∼0 (WM164 cells; 8 µM): 2 to 3 h
reduction in impedance signal (HT144 cells; 4 µM, 24 h): ~50%
time to drop in the impedance to ∼0 (HT144 cells; 8 µM): 2 to 3 h
